Laboratory results reported in PubChem BioAssay AID2462 (Broad Institute, 2010).
This is a selection; strong and weak results do not stand in their true shares. The source made the active and inactive calls.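 How the source made its calls: active means over half of replicate activation scores above 10%, or exactly half above 10 with the replicate mean above 10; inconclusive means replicate mean below 10 yet half the replicates above 10; inactive means over half of replicates below 10.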

assay: caspase 3/7 activation in MEF A1-2A-BIM cells, primary screen, A1 inhibitor project, cell-based, luminescence, HTS (AID 2462); conditions: Caspase-Glo 3/7 luminescence, 3 h, hits give high values, percent of clofoctol response, vehicle zero, concentration not given here

Structure (SMILES)	caspase activation
CS(=O)(=O)c1cc([N+](=O)[O-])c2no[n+]([O-])c2c1	inactive: -0.418%
Nc1ccccc1[As](=O)(O)c1ccccc1	inactive: 0.0215%
O=C(O)COc1ccc([As](=O)(O)O)cc1[N+](=O)[O-]	inactive: 1.36%
Nc1cccc2c([As](=O)(O)O)cccc12	inactive: -0.546%
Cc1ccc(NCCc2c([N+](=O)[O-])cc([N+](=O)[O-])cc2[N+](=O)[O-])cc1	inactive: -0.0831%
Cc1cc(C)cc(OP(C)(=O)Nc2ccccn2)c1 (centres undefined)	inactive: 0.429%
CP(=O)(Nc1cccc(Br)c1)Oc1ccccc1 (centres undefined)	inactive: 1.41%
Cc1ccc(C)c(NP(C)(=O)Oc2ccccc2)c1 (centres undefined)	inactive: 0.352%
CCCOP(=S)(Nc1nc(N)cc(=O)[nH]1)OCCC	inactive: -0.347%
CCOP(=O)(Nc1cccc2ccccc12)OCC	inactive: 0.796%
O=C(OC1CN2CCC1CC2)c1ccc(Cl)cc1 (centres undefined)	inactive: -1.02%
CS(=O)(=O)c1ccc(Cl)c(NC(=O)COC(=O)C(O)(c2ccccc2)c2ccccc2)c1	inactive: -0.231%
COc1ccccc1OP(C)(=O)Nc1cccc(Br)c1 (centres undefined)	inactive: 0.222%
O=[As](O)(O)c1cccnc1	inactive: 0.566%
COc1cc(C(=O)NCC2(N3CCOCC3)CCCCC2)cc(Cl)c1OC(C)C	inactive: 0.0148%
Cc1cc(C)cc(OP(C)(=O)Nc2ccc(C)cc2C)c1 (centres undefined)	inactive: 0.118%
Cc1cccc(OCC(=O)OC2CN3CCC2CC3)c1 (centres undefined)	inactive: 0.583%
O=[As](O)(c1cccc(O)c1)c1cccc(O)c1	inactive: -0.642%
CCOC(=O)c1ccc(NP(C)(=O)Oc2cc(C)cc(C)c2)cc1 (centres undefined)	inactive: -0.155%
COc1ccc(N/C(=N/P(=O)(N2CCOCC2)N2CCOCC2)N2CCOCC2)cc1	inactive: -0.374%
Cc1c2c(nc3ccccc13)SC(C(Cl)Cl)C2 (centres undefined)	inactive: -1.05%
CCN(CC)CCCOC(=O)C(O)(c1ccccc1)c1ccccc1	inactive: 0.078%

Structure (SMILES)	caspase activation
Cc1cc(=O)[nH]c(N[N+](=O)[O-])n1	inactive: -0.259%
O=C(OC1CN2CCC1CC2)C12CC3CC(CC(C3)C1)C2 (centres undefined)	inactive: -0.106%
COc1cc(I)ccc1[As](=O)(O)O	inactive: 0.591%
COc1ccc2nc(NP(=O)(c3ccccc3)c3ccccc3)sc2c1	inactive: 0.104%
ClCCSc1nnc(-c2cccnc2)o1	inactive: -1.12%
CCOC(=O)c1ccc(NP(C)(=O)Oc2ccccc2)cc1 (centres undefined)	inactive: -0.588%
CC(C)c1ccc(OP(=O)(Nc2ccccn2)Oc2ccccc2F)cc1 (centres undefined)	inactive: -0.276%
Cc1ccc(NP(C)(=O)Oc2ccccc2)c(C)c1 (centres undefined)	inactive: -0.408%
COc1ccccc1OP(C)(=O)Nc1ccc(C)cc1 (centres undefined)	inactive: 1.05%
COc1ccc(OP(C)(=O)Nc2cccc(F)c2)cc1 (centres undefined)	inactive: 0.241%
O=[N+]([O-])c1cc([N+](=O)[O-])c(-c2ccn[nH]2)s1	inactive: 0.149%
COc1ccccc1OP(C)(=O)Nc1cc(Cl)ccc1C (centres undefined)	inactive: -0.285%
CC(C)NC(=O)NP(=O)(Oc1ccccc1)Oc1ccccc1	inactive: -0.6%
CCN(CC)C(=S)SC(NC=O)C(Cl)(Cl)Cl (centres undefined)	inactive: 0.614%
Cc1cc(C)cc(OP(C)(N)=O)c1 (centres undefined)	inactive: -0.0787%
O=[N+]([O-])c1cc([N+](=O)[O-])c(Nc2cccnc2)c([N+](=O)[O-])c1	inactive: -0.897%
COc1cc(C(=O)NCC2(N3CCOCC3)CCCCC2)ccc1OCC(C)C	inactive: -2.59%
C[As](=O)(O)c1cccc(C(=O)O)c1	inactive: -0.106%
O=[As](O)(c1ccc(O)cc1)c1ccccc1O	inactive: -0.784%
Cc1cccc(C)c1OP(C)(N)=O (centres undefined)	inactive: -0.531%
Cc1ccc(OP(=O)(Nc2ccc([N+](=O)[O-])cn2)Oc2ccc(C)cc2)cc1	inactive: 3.06%
CC(C)(C)c1ccc(OP(C)(=O)Nc2ccc(SC(F)(F)F)cc2)cc1 (centres undefined)	inactive: 0.534%

Structure (SMILES)	caspase activation
O=[N+]([O-])c1ccc2c(c1)C=Nc1ccccc1O2	inactive: -0.114%
Cc1ccc2nc3c(c(C)c2c1)CC(C(Cl)Cl)S3 (centres undefined)	inactive: -0.398%
CP(=S)(Nn1cnnc1)Oc1ccccc1 (centres undefined)	inactive: -0.863%
CCOC(=O)Nc1cccc([As](=O)(O)O)c1	inactive: -0.765%
COc1ccccc1OP(C)(=O)Nc1ccccc1 (centres undefined)	inactive: 1.54%
O=P(Nc1ccccn1)(c1cccc2ccccc12)c1cccc2ccccc12	inactive: 0.49%
Cc1cc(SC(NC=O)C(Cl)(Cl)Cl)ncn1 (centres undefined)	inactive: 0.147%
O=[N+]([O-])c1ccc(Nc2ccc(Oc3ccc([N+](=O)[O-])cc3[N+](=O)[O-])cc2)c([N+](=O)[O-])c1	inactive: 0.787%
CP(=O)(Nc1ccccc1Br)Oc1ccccc1 (centres undefined)	inactive: 0.364%
CCOC(=O)Nc1ccc([As](=O)(O)O)c(O)c1	inactive: -0.36%
Cc1cc(SC(NC(=O)c2ccccc2)C(Cl)(Cl)Cl)nc(C(C)C)n1 (centres undefined)	inactive: 0.439%
O=C(OC1CN2CCC1CC2)c1cccc([N+](=O)[O-])c1 (centres undefined)	inactive: 1.16%
CCOP(C)(=S)SCC(=O)NC(C)C(=O)O (centres undefined)	inactive: 0.124%
CCOC(=O)c1ccc(NC(=O)C(C)(CCl)SC)cc1 (centres undefined)	inactive: -1.56%
CCOC(=O)c1ccc(NP(C)(=O)Oc2ccc(OC)cc2)cc1 (centres undefined)	inactive: -0.484%
O=[N+]([O-])c1cc([N+](=O)[O-])c(O)c([N+](=O)[O-])c1.c1ccc(Oc2ccncc2)cc1	inactive: -0.00869%
CCC(C)N(CC(C)C)C(=S)SC(NC(C)=O)C(Cl)(Cl)Cl (centres undefined)	inactive: 0.0449%
CP(=O)(Nc1ccccn1)Oc1ccc(Cl)cc1 (centres undefined)	inactive: 0.135%
CP(=O)(Oc1ccccc1)OC(c1ccccc1)C(F)(F)F (centres undefined)	inactive: -0.161%
COP1(=S)c2c(C)nn(CCC#N)c2N=C(c2ccc(F)cc2)N1C (centres undefined)	inactive: -0.0163%
